The target in assay [1] is T1, Ephrin type-A receptor 2 (Homo sapiens, UniProt P29317). In words: Antagonist activity at EphA2 in human PC3 cells assessed as inhibition of ephrin-A1-Fc-stimulated EphA2 phosphorylation pretreated for 20 mins by sandwich ELISA. The assay is classed as cell-based, PC-3.
Assay [2] has as its target T1, Ephrin type-A receptor 2. Briefly: Inhibition of ephrin-A1-Fc binding to EphA2-Fc receptor (unknown origin) after 1 hr by ELISA.

Amino acid sequences for entries named in this document (tags omitted).
UniProt P29317, whole entry: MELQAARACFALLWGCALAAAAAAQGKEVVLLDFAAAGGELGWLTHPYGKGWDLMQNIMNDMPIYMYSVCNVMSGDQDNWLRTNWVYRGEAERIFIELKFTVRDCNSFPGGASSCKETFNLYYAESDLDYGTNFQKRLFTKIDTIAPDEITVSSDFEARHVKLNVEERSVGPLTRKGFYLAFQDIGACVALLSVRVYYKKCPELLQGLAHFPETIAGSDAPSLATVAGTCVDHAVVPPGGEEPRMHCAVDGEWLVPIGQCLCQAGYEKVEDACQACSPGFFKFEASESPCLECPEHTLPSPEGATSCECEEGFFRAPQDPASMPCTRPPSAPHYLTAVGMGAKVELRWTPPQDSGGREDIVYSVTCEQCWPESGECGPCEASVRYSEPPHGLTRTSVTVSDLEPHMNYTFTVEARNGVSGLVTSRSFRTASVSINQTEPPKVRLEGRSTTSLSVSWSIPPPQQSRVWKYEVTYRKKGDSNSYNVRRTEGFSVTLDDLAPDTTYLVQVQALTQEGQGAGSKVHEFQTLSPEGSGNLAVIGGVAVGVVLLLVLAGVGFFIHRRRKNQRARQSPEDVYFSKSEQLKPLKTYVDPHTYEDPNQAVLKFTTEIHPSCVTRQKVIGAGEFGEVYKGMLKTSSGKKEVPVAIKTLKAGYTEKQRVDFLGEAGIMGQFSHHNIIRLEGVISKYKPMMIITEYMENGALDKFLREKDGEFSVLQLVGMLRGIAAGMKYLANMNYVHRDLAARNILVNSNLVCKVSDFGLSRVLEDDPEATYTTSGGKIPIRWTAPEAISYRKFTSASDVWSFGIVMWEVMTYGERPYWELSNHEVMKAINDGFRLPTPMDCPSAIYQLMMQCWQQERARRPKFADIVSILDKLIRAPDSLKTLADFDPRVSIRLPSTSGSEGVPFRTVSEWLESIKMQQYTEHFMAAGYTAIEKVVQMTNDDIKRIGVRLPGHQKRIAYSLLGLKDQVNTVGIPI

In general, IC50 refers to the concentration needed to halve the response being measured. For `C[C@H](CCC(=O)O)[C@H]1CC[C@H]2[C@@H]3CC[C@@H]4C[C@H](O)CC[C@]4(C)[C@H]3CC[C@]12C` [LITHOCHOLIC ACID], the concentration for half-maximal inhibition (IC50) on Ephrin type-A receptor 2 [1] was 50 µM; at Ephrin type-A receptor 2 [2], 57.5 µM.

The record behind these values is ChEMBL document CHEMBL2321799, “Amino acid conjugates of lithocholic acid as antagonists of the EphA2 receptor” (J Med Chem, 2013).
